Amino acid sequences for entries named in this document (tags omitted). Residues count along the entry.
UniProt P15056, 2-766 V600E limits assumed: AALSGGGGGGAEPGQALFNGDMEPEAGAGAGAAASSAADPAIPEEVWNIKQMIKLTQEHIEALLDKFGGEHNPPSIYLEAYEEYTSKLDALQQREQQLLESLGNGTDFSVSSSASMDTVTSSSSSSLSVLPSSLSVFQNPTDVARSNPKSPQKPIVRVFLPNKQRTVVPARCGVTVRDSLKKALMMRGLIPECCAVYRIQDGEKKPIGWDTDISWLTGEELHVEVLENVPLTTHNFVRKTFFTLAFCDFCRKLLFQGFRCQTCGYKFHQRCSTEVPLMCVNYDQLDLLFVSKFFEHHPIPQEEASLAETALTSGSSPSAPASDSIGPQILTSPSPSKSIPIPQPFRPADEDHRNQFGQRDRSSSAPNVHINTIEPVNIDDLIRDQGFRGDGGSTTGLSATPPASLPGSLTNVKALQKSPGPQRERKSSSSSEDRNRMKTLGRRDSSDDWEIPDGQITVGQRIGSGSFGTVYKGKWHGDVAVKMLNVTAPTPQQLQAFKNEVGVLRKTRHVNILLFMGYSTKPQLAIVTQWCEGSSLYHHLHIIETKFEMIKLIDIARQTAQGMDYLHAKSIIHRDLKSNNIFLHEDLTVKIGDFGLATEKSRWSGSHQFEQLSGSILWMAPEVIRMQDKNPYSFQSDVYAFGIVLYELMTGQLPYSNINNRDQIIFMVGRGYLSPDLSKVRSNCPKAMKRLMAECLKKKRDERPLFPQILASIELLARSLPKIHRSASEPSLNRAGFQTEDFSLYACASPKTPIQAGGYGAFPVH

According to US7994185B2, “Benzene sulfonamide thiazole and oxazole compounds” (Glaxo Smith Kline LLC, priority 2008, dated 2011):

Tests used:
[1] = target: BRAFV600E full-length (amino acids 2-766) (Homo sapiens, UniProt P15056, V600E); experiment: B-Raf Accelerated MEK ATPase assay (BRAMA); assay type: biochemical; settings: Table 1a; highest pIC50 for the one or more runs, categorized
[2] = tested on: Human colon tumor cells (Colo205); experiment: Cell growth inhibition assay (CellTiter-Glo), Colo205; assay type: cell-based; settings: read-out: Activity in Colo205 Tumor Cells; Table 2a; 3 days incubation
[3] = tested on: Human melanoma cancer cells (SK-MEL-28); experiment: Cell growth inhibition assay (CellTiter-Glo), SK-MEL-28; assay type: cell-based; settings: read-out: Activity in SK-MEL-28 Tumor Cells; Table 3a; 3 days incubation

Row | Structure (SMILES) | B-Raf Activity [1] | IC50 [2] | IC50 [3]
1 | COCCCNc1nccc(-c2sc(N3CCOCC3)nc2-c2cccc(NS(=O)(=O)c3cc(F)ccc3F)c2F)n1 | +++ (indicates at least one pIC50 measurement of greater than 7 against B-Raf) | < 100 nM | < 100 nM
2 | CC(C)c1nc(-c2ccc(F)c(NS(=O)(=O)c3c(F)cccc3F)c2)c(-c2ccnc(NCC(F)(F)F)n2)s1 | ++ (indicates at least one pIC50 measurement greater than 6 against B-Raf but no measurement greater than pIC50 of 7) | > 1000 nM | > 1000 nM
